Data taken from US20050281775A1, “Mucoadhesive and bioadhesive polymers” (priority 2004, published 2005).

Tested on: HT29-MTX-E12 (E12) monolayers

With “poly(2-(dimethylamino-ethyl) methacrylate) [Polymer “D”]” the “adhesion with mucosal gel layer (HT29-MTX-E12) relative to Caco-2” value was “up to 5 times”, the “increase in uptake of polymer, HT29-MTX-E12 over Caco-2” value was 5 fold and the “transepithelial transport of polymer” value was “minimal”.
